## Apparent affinities of Ab-14 variants for a coronavirus HR2 peptide

Values reported by Li et al. 2023, doi:10.1038/s41467-023-39022-2 (FLAb copy).

Antigen: PDVDLGDISGINAS, a 14-residue peptide of the SARS-CoV-2 spike HR2 region.

Each scFv is VH, the linker GGGGSGGGGSGGGGS, VL, as in the parent Ab-14, and differs from it in the CDRs of the light chain only.
VH: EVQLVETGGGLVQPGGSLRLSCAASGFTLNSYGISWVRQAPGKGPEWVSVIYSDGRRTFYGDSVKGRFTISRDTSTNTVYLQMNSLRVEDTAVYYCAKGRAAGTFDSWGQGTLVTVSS
VL: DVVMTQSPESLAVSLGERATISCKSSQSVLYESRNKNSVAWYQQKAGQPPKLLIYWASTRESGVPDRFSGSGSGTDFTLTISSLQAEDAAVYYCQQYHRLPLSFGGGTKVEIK

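The starting antibody came from a phage panning campaign against this peptide. This is the validation round: designs drawn from the data on random variants, tested in the same kind of assay. Their group label is 14L_GP_Gen (GP: Gaussian process model; Gen: genetic algorithm; a sequence that several methods proposed may carry one label only). In AlphaSeq, yeast of one mating type display the scFv and yeast of the other type display the target. Binding brings cells together so that they mate, and sequencing counts the barcode pairs among the diploids. Each replicate has its own calibration line, from reference interactions of the BCL2 family. Mating was done six times.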

Variants are written as CDR1, CDR2 and CDR3 of the light chain (limits as in the source). Parent: KSSQSVLYESRNKNSVA, WASTRES, QQYHRLPLS. Values are log10 of the apparent Kd in nM; lower means stronger binding. The authors averaged sequences with at least three values out of six and counted those with two or fewer as poor binders. Values of this round are not directly comparable with the first-round values of the same sequences. Empty control strains, which show no peptide, gave a signal in 4% of pairings with all light chain designs; the median was 2.64 and 95% of these signals were weaker than 1.59. No background was subtracted. For each scFv, signals with the empty controls are counted beside the result, with their mean in brackets.

| CDR-L1 | CDR-L2 | CDR-L3 | log10 Kd (nM) by replicate | signal with controls |
|---|---|---|---|---|
| KLQQSDLYESRNKNSVA | HASTRLS | QQYHRLPLS | -0.18 / -0.04 / -0.02 / -0.36 / -0.28 / -0.06 | 0 of 18 |
| KLQQSVQYESRNKNSVA | EASTRES | QQYHRLPLS | 0.01 / -0.11 / -0.18 / -0.50 / -0.04 / 0.29 | 0 of 18 |
| KVPQSHLYESRNKNSVA | DASTRES | QQYHRLPLS | 0.20 / -0.10 / 0.02 / -0.13 / -0.15 / 0.06 | 4 of 18 (3.31) |
| KLSQLWLYESRNKNSVA | NASQRES | QQYHRLPLS | 0.16 / -0.16 / -0.22 / -0.13 / -0.33 / -0.02 | 0 of 18 |
| KLPQSVEYESRNKNSVA | NASTRES | QQYHRLPLS | -0.37 / -0.22 / -0.37 / -0.43 / -0.38 / -0.36 | 1 of 18 (2.46) |
| KLSQSHLYESRMKNSVA | EASTRES | QQYHRLPLS | 1.19 / 0.55 / 0.15 / 0.13 / 0.54 / 0.20 | 0 of 18 |
| KLSQSVLYESRNCNSVA | NASTRCS | QQYHRLPLS | 0.28 / 0.15 / 0.03 / 0.17 / 0.16 / 0.24 | 0 of 18 |
| KLQQSNLYESRNKNSVA | EASTRES | QQYHRLPLS | -0.25 / -0.04 / -0.29 / -0.38 / -0.34 / 0.01 | 0 of 18 |
| KLSQSQLYESRNKNSVA | NASTRLM | QQYHRLPLS | -0.04 / -0.21 / -0.07 / -0.39 / -0.22 / -0.07 | 2 of 18 (3.49) |
| KVSQSVPYESRNKNSVA | HASTRES | QQYHRLPLS | 0.01 / 0.13 / -0.09 / 0.14 / 0.08 / 0.27 | 1 of 18 (2.28) |
| KISQSQLYESRNKNSVA | NASTRLS | QQYHRLPLS | -0.18 / -0.24 / -0.29 / -0.36 / -0.07 / -0.11 | 0 of 18 |
| KLPQSDLYESRNKNSVA | AASTRES | QQYHRLPLS | 0.15 / -0.22 / -0.07 / -0.07 / -0.04 / 0.27 | 0 of 18 |
| KLQQSWLYESRNKNSVA | NASLRES | QQYHRLPLS | 0.14 / 0.13 / 0.15 / -0.08 / -0.35 / 0.01 | 0 of 18 |
| KLSQSDLYESRNKNSVA | NASQREE | QQYHRLPLS | -0.06 / -0.30 / -0.15 / -0.12 / -0.26 / 0.08 | 0 of 18 |
| KLQQSVLYESRMKNSVA | NASTRMS | QQYHRLPLS | 1.07 / 1.62 / 0.78 / 0.41 / 1.11 / 1.32 | 0 of 18 |
| KLSQSDLYESRNKNSVA | DASTRES | QQYHRLPLS | -0.18 / -0.64 / -0.43 / -0.68 / -0.39 / -0.36 | 0 of 18 |
| KLSQSYLYESRMKNSVA | NASTRES | QQYHRLPLS | 0.82 / 0.95 / 0.43 / 0.43 / 0.34 / 0.75 | 0 of 18 |
| KLPQSVLYESRMKNSVA | NASQRES | QQYHRLPLS | 0.09 / -0.20 / -0.19 / -0.45 / -0.08 / -0.10 | 0 of 18 |
| KVSQSVLMESRNKNSVA | EASTRES | QQYHRLPLS | -0.04 / 0.17 / 0.04 / 0.08 / 0.16 / 0.23 | 0 of 18 |
| KVQQSGLYESRNKNSVA | NASTRES | QQYHRLPLS | -0.06 / -0.13 / -0.14 / -0.25 / -0.25 / 0.06 | 1 of 18 (2.66) |
| KLSQSVEYESRNKWSVA | NASTRES | QQYHRLPLS | 0.44 / 0.17 / 0.23 / 0.17 / 0.07 / 0.22 | 2 of 18 (2.53) |
| KVQQSHLYESRNKNSVA | NASQRES | QQYHRLPLS | 0.13 / -0.28 / -0.08 / -0.29 / -0.43 / -0.21 | 2 of 18 (2.97) |
| KLEQSELYESRNKNSVA | NASLRES | QQYHRLPLS | 0.23 / 0.07 / -0.13 / -0.23 / -0.06 / 0.19 | 1 of 18 (1.81) |
| KLSYSVLYESRNKNSVA | GASTRES | QQYHRLPLS | -0.31 / -0.53 / -0.53 / -0.23 / -0.47 / -0.23 | 1 of 18 (2.06) |
| KVSQSVDYESRNKNNVA | DASTRES | QQYHRLPLS | -0.08 / -0.74 / -0.56 / -1.08 / -0.83 / -0.68 | 0 of 18 |
| KFSQSQLYESRNKNSVA | NASTRES | QQYHRLPLS | -0.15 / 0.02 / -0.34 / -0.42 / -0.08 / 0.11 | 0 of 18 |
| KLWQSQLYESRNKNSVA | NASQRES | QQYHRLPLS | -0.24 / -0.36 / -0.30 / -0.33 / -0.33 / -0.12 | 0 of 18 |
| KLQGSQLYESRNKNSVA | NASTRES | QQYHRLPLS | 0.13 / -0.07 / -0.06 / -0.15 / -0.18 / -0.01 | 0 of 18 |
| KLQQSELYESRNKNSVA | NASTRLD | QQYHRLPLS | -0.06 / 0.24 / -0.18 / -0.25 / -0.19 / -0.05 | 1 of 18 (2.11) |
| KLSQSVLYESRNPNSVA | NASTRES | QQYHRLPLS | -0.23 / -0.38 / -0.43 / -0.59 / -0.44 / -0.34 | 2 of 18 (2.61) |
| KLEMSHLYESRNKNSVA | NASTRES | QQYHRLPLS | -0.14 / -0.10 / -0.15 / -0.27 / -0.40 / -0.04 | 0 of 18 |
| KLSQSVLYESRNKNNVA | SASTRMS | QQYHRLPLS | -0.12 / -0.37 / -0.21 / -0.29 / -0.39 / -0.37 | 0 of 18 |

The 4 strongest on average among those seen in every replicate, once more:

| CDR-L1 | CDR-L2 | CDR-L3 | log10 Kd (nM) by replicate | signal with controls |
|---|---|---|---|---|
| KVSQSVDYESRNKNNVA | DASTRES | QQYHRLPLS | -0.08 / -0.74 / -0.56 / -1.08 / -0.83 / -0.68 | 0 of 18 |
| KLSQSDLYESRNKNSVA | DASTRES | QQYHRLPLS | -0.18 / -0.64 / -0.43 / -0.68 / -0.39 / -0.36 | 0 of 18 |
| KLSQSVLYESRNPNSVA | NASTRES | QQYHRLPLS | -0.23 / -0.38 / -0.43 / -0.59 / -0.44 / -0.34 | 2 of 18 (2.61) |
| KLSYSVLYESRNKNSVA | GASTRES | QQYHRLPLS | -0.31 / -0.53 / -0.53 / -0.23 / -0.47 / -0.23 | 1 of 18 (2.06) |